# Measurements taken from patent US4877782A, “Zinc ceftiofur complexes” (The Upjohn Company, priority 1988, dated 1989).
# Columns and labels:
# [1] = dissolution rate in water; assay type: physicochemical; details: comparable equilibration conditions, zinc complex unmicronized
# [2] = bulk density; assay type: physicochemical; details: zinc ceftiofur sodium complex from water vs. ceftiofur sodium salt
substance,measurement,setting,value
zinc ceftiofur sodium complex [Compound I],solubility in water after 20 minutes,[1],47%
same,bulk density,[2],about 0.19 g./ml.
